For 2 compounds, Ki results are on record in ChEMBL document CHEMBL1146689, “The design and synthesis of a novel quinolizidine template for potent opioid and opioid receptor-like (ORL1, NOP) receptor ligands” (2004).

Test [1] deals with Delta-type opioid receptor (Homo sapiens, UniProt P41143). The test is described as follows: Binding affinity for human opioid receptor delta 1 using [3H]- CL-DPDPE as radioligand transfected into CHO cells.
The next test has as its target Nociceptin receptor (Homo sapiens, UniProt P41146). The test is described as follows: Binding affinity for human nociceptin (NOP) receptor using [3H]N/OFQ as radioligand transfected into CHO cells.
The target in test [2] is Kappa-type opioid receptor (Homo sapiens, UniProt P41145). The test can be described thus: Binding affinity for human opioid receptor kappa 1 using [3H]- U-69,593 as radioligand transfected into CHO cells.
Another test concerns the target Mu-type opioid receptor (Homo sapiens, UniProt P35372). The test is described as follows: Binding affinity for human opioid receptor mu 1 using [3H]- DAMGO as radioligand transfected into CHO cells.

A word on the Ki: it is a dissociation constant, usually derived from enzyme kinetics or from competition with a known ligand. Lower therefore signals tighter binding. As for `O=c1[nH]c2ccccc2n1[C@H]1CCN2[C@H](CCC[C@H]2C2CCCCC2)C1`, the inhibitory constant (Ki) in test [1] is greater than 10 µM; at Nociceptin receptor, 0.189 µM; in test [2], 0.227 µM; at Mu-type opioid receptor, 0.119 µM.

As to `O=c1[nH]c2ccccc2n1[C@@H]1CCN2[C@H](CCC[C@H]2C2CCCCC2)C1`, the Ki in test [1] turned out to be 2.08 µM; at Nociceptin receptor it was 0.0287 µM; in test [2], 0.0023 µM; at Mu-type opioid receptor it was 0.0468 µM.
